According to ChEMBL document CHEMBL3286181, “Pyridopyrimidinone inhibitors of HIV-1 RNase H” (Eur J Med Chem, 2014):

Molecular target: Human immunodeficiency virus type 1 reverse transcriptase (Human immunodeficiency virus 1) (UniProt Q72547)
Assay: Inhibition of HIV1 reverse transcriptase DNA polymerase activity up to 10 uM

In the case of `O=c1nc(NCC2CC2)c2cccnc2n1O`, the inhibition is reported as “inactive”.

Active and inactive are the calls of the source. The calls are words filed in the database; no cut-off is given here.
